Assay outcomes deposited in PubChem BioAssay by Broad Institute.
Hits are enriched below; roughly 2.1% of the tested compounds scored in any of these assays.
miR122 inh: miR-122 Renilla sensor signal increase in Huh7, primary screen, miR-122 inhibitor project, cell-based, single point, plate reader; Huh7 miR-122 Renilla luciferase sensor, 48 h; neutral wells = 0, positive control = 100; activation (reporter increase), % at 12.5 µM; 340,000 compounds, 0.3% hits;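 active means mean replicate activation score at least 90 and every replicate individually at or above 90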;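 further: higher luciferase means less miR-122 activity so hits act as miR-122 inhibitors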
MITF TRPM1 inh: inhibitors of MITF-dependent TRPM1 promoter reporter, primary screen, cell-based, SK-MEL-5, single point, luciferase; 330,000 compounds, 0.83% hits; inhibition, % at 12.5 µM; SK-MEL-5 TRPM1 promoter luciferase, 24 h; AID 488899, 2010;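 active means mean inhibition across replicates of 60% or more, whatever share of single replicates reaches that level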
Wnt act: Wnt/beta-catenin pathway activators, primary screen, cell-based, plate reader, single point | Wnt/beta-catenin reporter cell assay, activator | activation, % at 9.35 µM | 300,000 compounds, 1.2% hits; in the data active means activation above about 30%, passing the limit was not always enough;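 further: 0% = neutral control wells and 100% = positive control wells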
PGC1a acetyl inh: inhibitors of PGC1a acetylation signal, primary screen, cell-based, U2OS, AlphaScreen, inhibitor mode; inhibition, % at 15.6 µM; AlphaScreen anti-acetyl-lysine; with virally co-expressed GCN5 acetyltransferase; 350,000 compounds, 0.17% hits; AID 651687, 2012;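 active means every replicate shows inhibition of at least 40%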;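 further: 0% = neutral control wells and 100% = positive control wells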
MITF act: activators of MITF-driven TRPM1 promoter reporter, primary screen, cell-based, SK-MEL-5, luciferase, single point | SK-MEL-5 TRPM1-promoter luciferase, 24 h; % of positive control, neutral wells = 0 | activation, % at 12.5 µM | 300,000 compounds, 0.75% hits;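 active means mean activation of at least 80% with every replicate also reaching 80%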;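 further: 0% = neutral control wells and 100% = parthenolide positive control wells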
Yeast UUG start: yeast start codon fidelity modulation | S. cerevisiae UUG-firefly luciferase reporter, luminescence/redox ratio | activity score, % at 18.7 µM | 350,000 tested, 0.13% active;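 active = replicate mean at a twofold rise or more, about +100% in these data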;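 also: firefly luciferase made from a UUG start codon reports start codon fidelity; reporter light over untreated wells divided by growth signal over untreated wells; some hits fall short of that in this replicate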
Active calls of the source: *; x = no result; [ ] = remark or other dose.

Order of results – miR122 inh | MITF TRPM1 inh | Wnt act | PGC1a acetyl inh | MITF act | Yeast UUG start
1	COc1cccc2cc(-c3nc4ccccc4o3)c(=O)oc12
 : -8 | -33 | 42* | -3 | 36 | -18
2	O=c1oc2ccc(Br)cc2cc1-c1nc2ccccc2o1
 : -4 | -1 | -3 | 9 | 7 | 2
3	C=CCNS(=O)(=O)c1cccc2cc(C(=O)O)c(O)cc12
 : 36 | 12 | 4 | 95* | -10 | -12
4	O=C(O)c1cc2cccc(S(=O)(=O)N3CCCCC3)c2cc1O
 : 6 | -8 | 2 | -3 | 8 | -15
5	C[C@H](CO)N1C[C@H](C)[C@H](CN(C)S(=O)(=O)c2ccc(Cl)cc2)Oc2ccc(NS(=O)(=O)c3ccc(Cl)cc3)cc2CC1=O
 : 16[16.7 µM] | x | x | 5 | x | -5
6	COc1cccc(-n2nnnc2SCC(=O)Nc2ccccc2OC)c1
 : 8 | 5 | 0 | -17 | 0 | -17
7	CCCS(=O)(=O)c1nnnn1-c1cccc(OC)c1
 : -6 | 70* | x | -73 | -71 | -52
8	CCCCCc1cc(=O)oc2c(C(CCN3CCCC3)c3ccc(N(C)C)cc3)c(OC)cc(OC)c12 (stereo not given)
 : x | 79* | -11 | x | -78 | -4
9	CCCCCc1cc(=O)oc2c(C(CCN(CC)CC)c3ccc(OC)cc3)c(OC)cc(OC)c12 (stereo not given)
 : 0 | 81* | -10 | -3 | -80 | 15
10	CCCCCc1cc(=O)oc2c(C(CCN3CCCC3)c3cc(OC)c(OC)c(OC)c3)c(OC)cc(OC)c12 (stereo not given)
 : 9 | 95* | -11 | -10 | -94 | 23
11	CCCCCc1cc(=O)oc2c(C(CCN3CCCCC3)c3ccc(OC)cc3)c(OC)cc(OC)c12 (stereo not given)
 : 7 | 92* | -22 | x | -91 | -6
12	CCCCCc1cc(=O)oc2c(C(CCN3CCCC(C)C3)c3ccc(OC)cc3)c(OC)cc(OC)c12 (stereo not given)
 : 11 | 47 | -25 | 1 | -44 | -2
13	O=c1oc2ccccc2c2c1ncn2CCN1CCOCC1
 : 4 | 3 | 44* | 12 | x | -21
14	CN1CCN(CCCn2cnc3c(=O)oc4ccccc4c32)CC1
 : 1 | 4 | -1 | x | x | -16
15	Cc1nc2[nH]c(=O)c3c(n2n1)NC1=C(C(=O)CC(C)(C)C1)C3c1ccccc1 (stereo not given)
 : -25 | -2 | -2 | 84* | 1 | -20
16	C[C@@H]1CCCCO[C@@H](CN(C)C(=O)c2ccncc2)[C@@H](C)CN([C@H](C)CO)C(=O)c2cc(NS(=O)(=O)c3ccc(F)cc3)ccc2O1
 : 8[16.7 µM] | x | x | 3 | x | -2
17	Cc1cccc(-c2nn(-c3ccccc3)cc2C(=O)Nc2cccc(S(=O)(=O)NC3=NCCC3)c2)c1
 : 152* | -1 | 0 | 3 | 5 | -23
18	Cc1cc(C)n(-c2nc(NCCN(C)C)c3c4c(sc3n2)CCCC4)n1
 : x | 66* | 0 | x | x | x
19	CCN(Cc1ccccc1)c1ccc(/C=C(\C#N)c2ccccn2)cc1
 : 8 | -112 | 96* | 3 | 121* | -10
20	O=C(Sc1cccc2cccnc12)c1ccccc1Br
 : 13 | 85* | 4 | x | -84 | -28
21	CCCNC(=O)N1CC(=O)N2[C@H](C1)[C@H](c1ccc(-c3ccc(C)cc3)cc1)[C@@H]2CO
 : x | x | x | -4 | x | x
22	O=S(=O)(N[C@H]1CC[C@H](CCn2cc(-c3cccc(F)c3)nn2)O[C@@H]1CO)c1ccc(Cl)cc1
 : x | x | x | -15 | x | 4
23	CC(C)N=C1NN=C(c2cccs2)CS1
 : x | -35 | 4 | x | 35 | x
24	CC(C)c1ccc(N=C2NN=C(c3cccs3)CS2)cc1
 : x | -91 | -3 | -1 | 100* | x
25	CNC(=O)C[C@H]1CC[C@@H]2[C@H](COc3ccc(NS(=O)(=O)c4ccccc4C)cc3C(=O)N2C)O1
 : -6[16.7 µM] | x | x | -2 | x | 3
26	CCCNC(=O)Nc1ccc2c(c1)OC[C@H](C)N(C(=O)C1CC1)C[C@@H](C)[C@@H](OC)CN(C)C2=O
 : x | x | x | 4 | x | 17
27	O=C(Nc1ccc(OC(F)(F)F)cc1)c1n[nH]c(Cn2cncn2)n1
 : -1 | 6 | 81* | 2 | x | -7
28	CNC[C@@H]1Oc2cc(C#CC3CCCCC3)ccc2S(=O)(=O)N([C@@H](C)CO)C[C@H]1C
 : -2[16.7 µM] | x | x | -17 | x | 30
29	O=C(CSc1nnc2ccccn12)c1ccc(Cl)cc1
 : -11 | -36 | 36* | 9 | 38 | -22
30	O=C(CSc1nnc2ccccn12)NNC(=O)c1ccc(Cl)cc1
 : -3 | 8 | -2 | 3 | -2 | -18
31	O=c1c2ccccc2nnn1CSc1nnc2ccccn12
 : -4 | -54 | 53* | -9 | x | -16
32	CN1CCN(Cc2nc3ccccc3c(=O)n2Cc2nc(-c3ccc([N+](=O)[O-])cc3)cs2)CC1
 : x | 66* | x | x | -65 | x
33	COc1cccc(NC(=O)N[C@H]2CC[C@H](CC(=O)Nc3ccc(-c4ccccc4)cc3)O[C@H]2CO)c1
 : -18[16.7 µM] | x | x | 7 | x | -27
34	COc1ccc(C2=Cc3ccc(OC(C)=O)cc3OC2)cc1
 : x | -95 | 14 | 3 | 103* | -19
35	Cc1ccc(SC[C@H](CC(C)C)N2CCN(C)CCC2=O)cc1
 : x | -51 | 7 | x | 53 | -1
36	CC(C)C[C@@H](CSc1ccc(Br)cc1)N1CCN(C)CCC1=O
 : -3 | -79 | 12 | 4 | 81* | -33
37	O=C(c1ccccn1)N1C[C@H]2[C@@H](c3ccccc31)[C@@H](CO)N2C(=O)C1CCOCC1
 : -5[16.7 µM] | x | x | 0 | x | -13
38	COc1ccccc1NS(=O)(=O)c1cccc(NC(=O)Nc2ccccc2)c1
 : 68 | -5 | -3 | -10 | 11 | -13
39	CCNC(=S)Nc1cccc(S(=O)(=O)Nc2ccccc2OC)c1
 : 63 | -6 | 33* | 0 | 7 | x
40	COc1ccc(S(=O)(=O)N(C)C[C@H]2Oc3ccc(NC(=O)NC4CCCCC4)cc3C(=O)N([C@@H](C)CO)C[C@@H]2C)cc1
 : -1[16.7 µM] | x | x | 1 | x | 1
41	Cc1cc(N2CCN(C)CC2)nc2ccc(NC(=S)NCCN3CCc4ccccc4C3)cc12
 : 1 | 78* | -2 | -16 | -77 | -19
42	Cc1cccc(N2CCN(C(=S)Nc3ccc4nc(N5CCN(C)CC5)cc(C)c4c3)CC2)c1C
 : -6 | 96* | -22 | -16 | -96 | -27
43	Cc1cc(N2CCOCC2)nc2ccc(NC(=O)CCC(=O)N3CCN(c4ccc(F)cc4)CC3)cc12
 : -7 | -10 | 4 | x | 9 | 4
44	Cc1cc(N2CCOCC2)nc2ccc(NC(=O)CCC(=O)N3CCN(c4ccccc4F)CC3)cc12
 : -2 | -121 | 13 | -12 | 120* | -6
45	Cc1cc(N2CCN(C)CC2)nc2ccc(NC(=S)NCCCN3CCc4ccccc4C3)cc12
 : 3 | 14 | -2 | -1 | -10 | -16

In a second layout: five of the compounds above.
5: C[C@H](CO)N1C[C@H](C)[C@H](CN(C)S(=O)(=O)c2ccc(Cl)cc2)Oc2ccc(NS(=O)(=O)c3ccc(Cl)cc3)cc2CC1=O
31: O=c1c2ccccc2nnn1CSc1nnc2ccccn12
7: CCCS(=O)(=O)c1nnnn1-c1cccc(OC)c1
9: CCCCCc1cc(=O)oc2c(C(CCN(CC)CC)c3ccc(OC)cc3)c(OC)cc(OC)c12 (stereo not given)
3: C=CCNS(=O)(=O)c1cccc2cc(C(=O)O)c(O)cc12

assay / entry	5	31	7	9	3
miR122 inh	16[16.7 µM]	-4	-6	0	36
MITF TRPM1 inh	x	-54	70*	81*	12
Wnt act	x	53*	x	-10	4
PGC1a acetyl inh	5	-9	-73	-3	95*
MITF act	x	x	-71	-80	-10
Yeast UUG start	-5	-16	-52	15	-12
